Consider one molecule from ChEMBL document CHEMBL4257453, “Identification of karanjin isolated from the Indian beech tree as a potent CYP1 enzyme inhibitor with cellular efficacy via screening of a natural product repository” (Medchemcomm, 2018).

Sequences of proteins named here, by UniProt entry; tags and fusion partners are left off.
UniProt P05177, whole entry: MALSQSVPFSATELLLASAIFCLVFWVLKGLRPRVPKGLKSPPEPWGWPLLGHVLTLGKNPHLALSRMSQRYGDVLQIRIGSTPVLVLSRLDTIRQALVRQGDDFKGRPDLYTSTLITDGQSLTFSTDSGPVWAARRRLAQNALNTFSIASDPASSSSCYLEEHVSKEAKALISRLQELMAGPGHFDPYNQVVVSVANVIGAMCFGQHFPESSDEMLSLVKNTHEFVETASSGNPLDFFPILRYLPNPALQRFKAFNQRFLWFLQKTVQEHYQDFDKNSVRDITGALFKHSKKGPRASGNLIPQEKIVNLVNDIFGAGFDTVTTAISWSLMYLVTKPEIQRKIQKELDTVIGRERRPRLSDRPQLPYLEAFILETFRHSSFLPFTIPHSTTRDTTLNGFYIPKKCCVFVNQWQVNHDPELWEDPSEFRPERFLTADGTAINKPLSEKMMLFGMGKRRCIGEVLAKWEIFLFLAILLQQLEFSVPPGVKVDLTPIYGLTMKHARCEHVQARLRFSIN

The term inhibition denotes the drop in the measured response relative to a control, in per cent.

The target of the series is CYP1A2 (Homo sapiens, UniProt P05177). Nature of the series: Inhibition of recombinant human CYP1A2 expressed in baker's yeast-derived microsomes (Sacchrosomes) at 10 uM using 3-cyano-7-ethoxycoumarin substrate by EROD assay relative to control. The class given is ADME. As to conditions: probe 3-cyano-7-ethoxycoumarin. In short, it runs like this: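 Yeast microsomes carrying recombinant CYP (Sacchrosomes). […] Substrates per isoform are 7-ethoxyresorufin, 3-cyano-7-ethoxycoumarin, EOMCC or dibenzylfluorescein, read as endpoint fluorescence. Background from compound-only wells without enzyme is subtracted. Independent triplicate runs; α-naphthoflavone positive control.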

Turning to `O=c1cc(-c2ccccc2)oc2c1ccc1ccccc12` [ALPHA-NAPHTHOFLAVONE], the inhibition at 10 µM is 95%.
